This is an account of results in US7943641B2, “7-((1H-imidazol-4-yl)methyl)-5,6,7,8-tetrahydroquinoline” (Allergan, Inc., priority 2006, dated 2011).

Amino acid sequences for entries named in this document (tags omitted).
UniProt P08913, whole entry: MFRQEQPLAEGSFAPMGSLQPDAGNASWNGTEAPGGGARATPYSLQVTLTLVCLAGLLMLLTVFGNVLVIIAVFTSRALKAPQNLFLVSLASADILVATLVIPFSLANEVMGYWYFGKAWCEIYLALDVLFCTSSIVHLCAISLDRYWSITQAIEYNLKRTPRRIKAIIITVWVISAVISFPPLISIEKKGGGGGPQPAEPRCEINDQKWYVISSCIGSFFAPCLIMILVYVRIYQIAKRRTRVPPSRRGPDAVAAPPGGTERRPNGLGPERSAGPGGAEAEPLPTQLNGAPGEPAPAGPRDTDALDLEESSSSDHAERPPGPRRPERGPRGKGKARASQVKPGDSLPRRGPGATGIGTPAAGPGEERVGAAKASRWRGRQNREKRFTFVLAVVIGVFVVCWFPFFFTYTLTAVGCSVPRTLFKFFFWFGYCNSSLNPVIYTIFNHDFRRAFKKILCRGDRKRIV
UniProt P18089, whole entry: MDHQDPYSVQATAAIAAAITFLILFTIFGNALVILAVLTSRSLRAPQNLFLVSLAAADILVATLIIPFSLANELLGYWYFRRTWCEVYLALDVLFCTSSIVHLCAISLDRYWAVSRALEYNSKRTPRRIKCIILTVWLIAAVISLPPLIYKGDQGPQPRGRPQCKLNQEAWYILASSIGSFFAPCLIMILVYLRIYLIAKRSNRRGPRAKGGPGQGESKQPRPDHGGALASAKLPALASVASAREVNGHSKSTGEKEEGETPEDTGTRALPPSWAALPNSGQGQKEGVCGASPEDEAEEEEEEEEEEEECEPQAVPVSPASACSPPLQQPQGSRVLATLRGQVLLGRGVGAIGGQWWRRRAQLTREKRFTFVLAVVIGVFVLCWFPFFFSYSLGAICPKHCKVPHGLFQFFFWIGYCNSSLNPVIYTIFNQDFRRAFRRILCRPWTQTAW
UniProt P18825, whole entry: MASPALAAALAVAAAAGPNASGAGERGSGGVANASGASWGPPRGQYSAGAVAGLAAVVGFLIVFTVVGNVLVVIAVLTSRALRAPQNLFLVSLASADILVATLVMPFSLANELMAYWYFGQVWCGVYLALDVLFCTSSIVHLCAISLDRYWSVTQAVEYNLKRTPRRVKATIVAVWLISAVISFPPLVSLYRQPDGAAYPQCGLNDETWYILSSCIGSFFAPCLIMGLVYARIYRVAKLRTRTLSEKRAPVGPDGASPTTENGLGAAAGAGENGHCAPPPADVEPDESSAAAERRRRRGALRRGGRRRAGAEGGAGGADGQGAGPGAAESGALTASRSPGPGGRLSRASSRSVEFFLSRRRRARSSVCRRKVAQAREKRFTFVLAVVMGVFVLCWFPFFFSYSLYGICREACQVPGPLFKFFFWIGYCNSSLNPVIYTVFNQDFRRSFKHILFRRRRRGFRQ

As usually defined, the pEC50 is the negative decadic logarithm of the EC50, by convention in mol/L. A low value points to a large EC50.

One assay concerns the target T1, α2A adrenergic receptor (Homo sapiens, UniProt P08913).
T1 construct: expressed in transfected cells; host or cells: NIH-3T3 cells
In words: RSAT (Receptor Selection and Amplification Technology) assay, α2A. The following applies: ratio of maximal effect to that of standard full agonist (brimonidine). The class given is cell-based. The procedure: Incubations continue 72-96 hr at 37° C.

The target of the next assay is T2, α1A adrenergic receptor (Homo sapiens, UniProt P35348).
T2 sequence (P35348 1-466): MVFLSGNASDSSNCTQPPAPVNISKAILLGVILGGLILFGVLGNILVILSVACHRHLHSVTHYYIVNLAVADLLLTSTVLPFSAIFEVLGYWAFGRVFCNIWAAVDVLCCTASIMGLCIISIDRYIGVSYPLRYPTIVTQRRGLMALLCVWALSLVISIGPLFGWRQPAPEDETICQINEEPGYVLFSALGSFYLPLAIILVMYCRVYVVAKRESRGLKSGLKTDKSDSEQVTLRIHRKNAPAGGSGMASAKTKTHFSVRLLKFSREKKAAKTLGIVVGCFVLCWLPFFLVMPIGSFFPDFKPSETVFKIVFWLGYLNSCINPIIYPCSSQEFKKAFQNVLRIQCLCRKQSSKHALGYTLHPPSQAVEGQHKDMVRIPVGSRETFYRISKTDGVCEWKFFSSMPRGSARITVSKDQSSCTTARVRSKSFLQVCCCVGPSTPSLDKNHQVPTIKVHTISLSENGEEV
The assay is described as follows: cell-based. The following applies: for pEC50: RSAT EC50 α1A, NIH-3T3 cells cotransfected with receptor and G protein; for RSAT relative efficacy α1A: ratio of maximal effect to that of a standard full agonist. As for the experimental part:
(§1) The RSAT assay measures a receptor-mediated loss of contact inhibition that results in selective proliferation of receptor-containing cells in a mixed population of confluent cells. The increase in cell number is assessed with an appropriate transfected marker gene such as β-galactosidase, the activity of which can be easily measured in a 96-well format. Receptors that activate the G protein, Gq, elicit this response. Alpha2 receptors, which normally couple to Gi, activate the RSAT response when coexpressed with a hybrid Gq protein that has a Gi receptor recognition domain, called Gq/i5.
(§2) NIH-3T3 cells are plated at a density of 2×10^6 cells in 15 cm dishes and maintained in Dulbecco's modified Eagle's medium supplemented with 10% calf serum. One day later, cells are cotransfected by calcium phosphate precipitation with mammalian expression plasmids encoding p-SV-β-galactosidase (5-10 μg), receptor (1-2 μg) and G protein (1-2 μg). 40 μg salmon sperm DNA may also be included in the transfection mixture. Fresh media is added on the following day and 1-2 days later, cells are harvested and frozen in 50 assay aliquots. Cells are thawed and 100 μl added to 100 μl aliquots of various concentrations of drugs in triplicate in 96-well dishes. Incubations continue 72-96 hr at 37° C. After washing with phosphate-buffered saline, β-galactosidase enzyme activity is determined by adding 200 μl of the chromogenic substrate (consisting of 3.5 mM o-nitrophenyl-β-D-galactopyranoside and 0.5% nonidet P-40 in phosphate buffered saline), incubating overnight at 30° C. and measuring optical density at 420 nm. The absorbance is a measure of enzyme activity, which depends on cell number and reflects a receptor-mediated cell proliferation. The efficacy or intrinsic activity is calculated as a ratio of the maximal effect of the drug to the maximal effect of a standard full agonist for each receptor subtype.
(§3) NA stands for “not active” at concentrations less than 10 micromolar.

A further assay has as its target α2B adrenergic receptor (Homo sapiens, UniProt P18089). In words: cell-based. Particulars: for pEC50: RSAT EC50 α2B, NIH-3T3 cells cotransfected with receptor and G protein; for RSAT relative efficacy α2B: ratio of maximal effect to that of standard full agonist (brimonidine). The procedure:
as §1, §2, §3

Another assay deals with α2C adrenergic receptor (Homo sapiens, UniProt P18825). In words: cell-based. Particulars: for pEC50: RSAT EC50 α2C, NIH-3T3 cells cotransfected with receptor and G protein; for RSAT relative efficacy α2C: ratio of maximal effect to that of standard full agonist (brimonidine). The procedure:
as §1, §2, §3

pEC50: −log10 of the molar value. Where a name gives a salt, the structure may show the parent alone.

In the case of `c1cnc2c(c1)CCC(Cc1c[nH]cn1)C2` (single isomer, unassigned; (-)) [(−) enantiomer, (−) 7-((1H-imidazol-4-yl)methyl)-5,6,7,8-tetrahydroquinoline], on α2A adrenergic receptor, the “RSAT relative efficacy α2A” value is listed as “(0.33 eff)”. At α1A adrenergic receptor, the pEC50 is 6.09 and the “RSAT relative efficacy α1A” value is “(0.49 eff)”. On α2B adrenergic receptor, the pEC50 was 8.15 and the “RSAT relative efficacy α2B” value is on record as “(1.0 eff)”. Besides, at α2C adrenergic receptor, the pEC50 is 7.64 and the “RSAT relative efficacy α2C” value is listed as “(0.7 eff)”.

For `c1cnc2c(c1)CCC(Cc1c[nH]cn1)C2` (single isomer, unassigned; (+)) [(+) enantiomer, (+)-7-(1H-imidazol-4-ylmethyl)-5,6,7,8-tetrahydro-quinoline dihydrochloride], the “RSAT relative efficacy α2A” value on α2A adrenergic receptor (dihydrochloride) is listed as “(0.67 eff)”. The pEC50 is 7.71 on α1A adrenergic receptor, 9.70 on α2B adrenergic receptor and 8.96 on α2C adrenergic receptor. In addition, at α1A adrenergic receptor (dihydrochloride), the “RSAT relative efficacy α1A” value is “(0.85 eff)”. At α2B adrenergic receptor (dihydrochloride), the “RSAT relative efficacy α2B” value is “(0.98 eff)”. The “RSAT relative efficacy α2C” value at α2C adrenergic receptor (dihydrochloride) was “(0.83 eff)”.

Take `c1cnc2c(c1)CCC(Cc1c[nH]cn1)C2` (racemic) [racemic mixture, 7-(1H-Imidazol-4-ylmethyl)-5,6,7,8-tetrahydro-quinoline dihydrochloride]: the “RSAT relative efficacy α2A” value on α2A adrenergic receptor is “(0.72 eff)”. At α1A adrenergic receptor, the pEC50 is 7.41 and the “RSAT relative efficacy α1A” value is on record as “(1.43 eff)”. Further, on α2B adrenergic receptor, the pEC50 was 10.00 and the “RSAT relative efficacy α2B” value is “(1.0 eff)”. In addition, on α2C adrenergic receptor, the pEC50 is 8.40 and the “RSAT relative efficacy α2C” value was “(1.0 eff)”.
